Measurements from PubChem BioAssay AID652083 (The Scripps Research Institute Molecular Screening Center, 2013).
This is one part of the list.

Tested on: SKCa channel
Assay: PubChem AID 652083
Conditions: CEREP radioligand binding panel, % inhibition at 10 uM, stronger effect = higher value

**Q.** With `COC(=O)c1cc(Br)cnc1N1CCC(NC2CCCCC2)C(O)C1` (stereo unspecified) as the compound, how does the inhibition of specific binding read?
**A.** -24%
